Experimental findings from patent US20250221947A1, “METHODS FOR TREATING A CORONAVIRUS INFECTION USING VALPROIC ACID AND DOCOSAHEXAENOIC ACID” (priority 2024, published 2025) are described below.

A short description of the series: Serum VPA levels in a national data set (LabCorp). The note with it: June 2021.

With `CCCC(CCC)C(=O)O` [VPA, valproic acid], the “share of patients with a serum level of 80 μg/mL (~0.55 mM)” value is less than 25%.
